Test system: SW837 (colon)
Experiment: In vitro two-way combination matrix, growth inhibition, Loewe synergy score

Substance: cetuximab: EGFR antibody, Erbitux
- single agent activity: lack of cetuximab activity
